{"sequences": {"note": "Chains of the proteins cited; added tags and fusions are not shown. Residues count along the entry.", "UniProt P17787, 26-502 limits assumed": "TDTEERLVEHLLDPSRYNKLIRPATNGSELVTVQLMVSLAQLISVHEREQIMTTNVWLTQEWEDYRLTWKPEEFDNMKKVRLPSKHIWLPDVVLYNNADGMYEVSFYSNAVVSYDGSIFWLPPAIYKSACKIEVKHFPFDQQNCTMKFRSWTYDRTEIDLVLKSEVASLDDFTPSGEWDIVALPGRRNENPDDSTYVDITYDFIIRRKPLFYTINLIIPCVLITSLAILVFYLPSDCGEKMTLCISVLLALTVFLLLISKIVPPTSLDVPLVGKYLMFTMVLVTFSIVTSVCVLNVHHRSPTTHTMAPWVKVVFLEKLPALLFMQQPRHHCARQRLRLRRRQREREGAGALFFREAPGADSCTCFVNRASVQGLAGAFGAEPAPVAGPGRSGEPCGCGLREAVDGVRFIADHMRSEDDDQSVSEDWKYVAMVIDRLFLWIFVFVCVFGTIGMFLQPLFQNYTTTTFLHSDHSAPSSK", "UniProt P43681, 29-627 limits assumed": "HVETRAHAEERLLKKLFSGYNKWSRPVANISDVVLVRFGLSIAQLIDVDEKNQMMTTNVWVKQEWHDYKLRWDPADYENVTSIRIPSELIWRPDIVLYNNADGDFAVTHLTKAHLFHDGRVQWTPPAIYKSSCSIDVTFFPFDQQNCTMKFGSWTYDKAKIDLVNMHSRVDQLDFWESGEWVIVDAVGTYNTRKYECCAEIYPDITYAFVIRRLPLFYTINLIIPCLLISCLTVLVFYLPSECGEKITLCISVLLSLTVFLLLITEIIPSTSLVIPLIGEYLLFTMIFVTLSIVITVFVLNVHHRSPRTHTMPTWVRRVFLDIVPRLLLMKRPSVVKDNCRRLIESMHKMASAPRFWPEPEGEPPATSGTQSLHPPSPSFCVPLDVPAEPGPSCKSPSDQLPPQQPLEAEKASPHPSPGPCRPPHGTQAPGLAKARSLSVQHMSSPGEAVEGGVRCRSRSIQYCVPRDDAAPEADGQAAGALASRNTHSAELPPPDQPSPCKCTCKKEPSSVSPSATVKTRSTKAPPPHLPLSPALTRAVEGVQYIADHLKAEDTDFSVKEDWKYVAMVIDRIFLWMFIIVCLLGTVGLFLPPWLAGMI"}, "source": "paper PMC4995024", "about": "“Ligand Binding at the α4-α4 Agonist-Binding Site of the α4β2 nAChR Triggers Receptor Activation through a Pre-Activated Conformational State” (PLoS ONE, 2016)", "target": "2α4:3β2 nAChR (Homo sapiens, UniProt P17787+P43681)", "assay": "Two-electrode voltage-clamp electrophysiology in Xenopus oocytes, WT 2α4:3β2 receptor", "assay_type": "cell-based", "conditions": "2α4:3β2, ligand alone; Hill co-efficient of one; 3α4:2β2 receptors", "data": [{"compound": "CCOc1cncc(/C=C/CCNC)c1", "note": "[TC-2559]", "values": [{"measurement": "EC50", "value": 3.3, "unit": "µM"}]}]}
